RXFP1 ag: RXFP1 (human) receptor agonism; Q9HBX9; Potency, µM (doses to about 57.5 µM), without a hit: top-dose activation, most hits filed as activators; HEK293T-RXFP1 cAMP TR-FRET, 30 min; response scale: percent of porcine relaxin response, buffer zero; 370,000 compounds, 0.3% hits; also: potency is read from the fitted curve at half-maximal effect; % is scaled to controls: 0 for no effect and ±100 for the full control effect; nearly all actives have a fitted effect of over 60% in size
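HEK293 cells stably expressing RXFP1, treated 30 min at 37C with compounds plus PDE4 inhibitor Ro 20174; cAMP measured by HTRF TR-FRET. Normalized to buffer and 29 nM porcine relaxin; EC50 by Hill fit.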
miR-21 reporter: miR-21 reporter, rising signal | HeLa miR-21 FLuc reporter, luciferase, 48 h | Potency, µM (top dose mostly 38.3 µM), inactives show at the top dose reporter change, positive = more light | 340,000 tested, under 10 active | AID 2288; active = well fitted rising curve with a large enough effect; inconclusive = small, poorly fitted or top-dose-only effect; inactive = no such curve, though single readings can be large or run the other way;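 further: % of control where 0% means no effect; miR-21 action dims this reporter so a rising signal means less miR-21 action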
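Luminescence from a firefly luciferase reporter carrying a miR-21 binding site downstream, stably expressed under a CMV promoter in HeLa cells that make miR-21 endogenously, reports miRNA modulation after 48 h compound exposure up to approximately 40uM final.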
PKM2 activator: activators of human pyruvate kinase M2 | P14618 | purified PKM2, Kinase-Glo ATP luminescence, activation; response scale: 0% is enzyme alone, no compound | Potency, µM (top dose mostly 57.5 µM), inactives show top-dose activation, hits mostly activators | 260,000 compounds, 0.34% hits | AID 1631; also: potency is read from the fitted curve at half-maximal effect; % is scaled to controls: 0 for no effect and ±100 for the full control effect; nearly all actives have a fitted effect of over 55% in size
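Kinase-Glo luminescence reports ATP generated from ADP (0.1 mM) and PEP (0.5 mM) by purified hPK-M2 after 1 h at room temperature, pH 7.2 imidazole buffer; intermediate enzyme activity allows detecting inhibitors and activators.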
RXFP1 antagonist: blocks the human relaxin receptor RXFP1; Q9HBX9; HEK293-RXFP1, relaxin-stimulated cAMP HTRF, 30 min; hits give low values; activity change, negative = inhibition, % at 57.5 µM; 350,000 compounds, 0.59% hits; AID 1259400;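 active = activity change of -60% or lower, but not beyond a set lower limit; inconclusive = change between -60% and -40%, or beyond the set limit; inactive = change above -40%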; also: % is scaled to controls: 0 for no effect and ±100 for the full control effect
Luc counter: blocks Kinase-Glo luciferase, a counter-screen artifact. 200,000 compounds, 0.28% hits. AID 1379. Kinase-Glo luciferase, ATP luminescence, 8 min. Potency, µM (titrated, usually from 38.3 µM), for the others: at the top dose activity change, negative = inhibition, most hits filed as inhibitors; also: potency is read from the fitted curve at half-maximal effect; % is scaled to controls: 0 for no effect and ±100 for the full control effect; nearly all actives have a fitted effect of over 60% in size
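Kinase-Glo luciferase light output from ATP and luciferin was measured with 10 uM ATP, within the enzyme's linear range. Buffer: 50 mM imidazole pH 7.2, 50 mM KCl, 7 mM MgCl2, 0.01% Tween 20, 0.05% BSA; luminescence read after 8 min at ambient temperature.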
GALK inh: galactokinase (human) inhibition; AID 1868; 270,000 compounds, 0.007% hits; Potency, µM (highest dose often 57.5 µM), inactives show at the highest dose activity change, negative = inhibition, usual class: inhibitors; P51570; Purified GALK, Kinase-Glo residual ATP luminescence; also: potency is read from the fitted curve at half-maximal effect; % is scaled to controls: 0 for no effect and ±100 for the full control effect
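Luminescence from leftover ATP (Ultra-Glo luciferase/luciferin) served as read-out after a 1 h room-temperature reaction of 5 nM GALK with 35 uM ATP and 100 uM galactose.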
* hit, by the source's call; [ ] = another dose, or the depositor's remark. This is a sample that favours compounds with a hit; in the whole collection about 0.92% have one here. Unless noted, calls follow the shape of the dose curve; as a rule, active = well fitted curve in the direction sought with a large enough effect; inconclusive = small, poorly fitted or top-dose-only effect, or another doubt; inactive = no such curve, though single readings can be large; an effect the other way counts as inactive or inconclusive.

Cc1cccc(C)c1NC(=O)CSc1ncc2c(n1)-c1ccc(Cl)cc1N(Cc1ccccc1)S2(=O)=O was read as RXFP1 ag 10µM*, miR-21 reporter -1% and RXFP1 antagonist 18.
`Cc1cccc(C(=O)NCC(c2ccco2)S(=O)(=O)c2cccs2)c1` (stereo not drawn) gave RXFP1 ag -1%, miR-21 reporter 3% and RXFP1 antagonist 1.
`C[C@@]12C[C@H](O)C3[C@H](CCC4=CC(=O)CC[C@]43C)[C@H]1CC[C@@H]2c1csc(N)n1` (stereo partly drawn) gave Luc counter 1%[7.66 µM].
C[C@H](NC(=O)N1CCc2nc(-c3ccccc3)c3c(c2C1)CO[C@@H](C)C3)c1ccccc1 was read as PKM2 activator -14%[11.5 µM] and Luc counter -3%[7.66 µM].
`COc1ccc(/C=C/c2nc(-c3ccccc3O)n[nH]2)cc1OC` gave RXFP1 ag -1%, miR-21 reporter -74%, PKM2 activator 3%, RXFP1 antagonist -100*, Luc counter 3% and GALK inh -7%.
For COc1ccc(CNC(=O)COC(=O)c2ccc(OCC3CCCO3)cc2)cc1 (stereo not drawn) the results were RXFP1 ag 1% and RXFP1 antagonist -2.
For N#CC(C#N)=Cc1ccc(-c2ccc(S(=O)(=O)N=C(N)N)cc2)o1 the results were RXFP1 ag 1%, miR-21 reporter -10%, PKM2 activator 18µM*, RXFP1 antagonist 14, Luc counter -2% and GALK inh -4%.
CC(C)(C)OC(=O)NCCCCC1=CC2=CC(=O)C(C)(OC(=O)C3CCCC3)C(=O)C2=CO1 (stereo not drawn) was read as Luc counter -1%.
COc1ccc(-c2cc(OC(=O)c3ccccc3)c3c(C)oc(C)c3c(=O)c2)cc1OC was read as RXFP1 ag 0%, miR-21 reporter -13% and RXFP1 antagonist -5.
`CCOc1cc(-c2ccc(OC(=O)c3ccc(Cl)cc3)c(OC)c2)cc(=O)c2c(C)oc(C)c12` gave RXFP1 ag 0%, miR-21 reporter -2% and RXFP1 antagonist -63*.
COc1cc(-c2cc(OC)c3c(C)oc(C)c3c(=O)c2)ccc1OC(=O)c1ccccc1Cl was read as RXFP1 ag 3%, miR-21 reporter -14% and RXFP1 antagonist inconclusive.
COc1cc(-c2cc(OC)c3c(C)oc(C)c3c(=O)c2)ccc1OC(=O)c1ccccc1F was read as RXFP1 ag 1%, miR-21 reporter -17% and RXFP1 antagonist -68*.
CCOc1cc(-c2ccc(OC(=O)c3ccccc3)c(OC)c2)cc(=O)c2c(C)oc(C)c12 was read as RXFP1 ag 3%, miR-21 reporter -14% and RXFP1 antagonist -98*.
For Nc1ccn([C@@H]2O[C@H](CO)[C@@H](O)C2(F)F)c(=O)n1 the results were RXFP1 antagonist -8.
CCOc1ccc2nc(NC(=O)c3ccco3)sc2c1 was read as RXFP1 ag -1%, miR-21 reporter -2%, PKM2 activator -3%[11.5 µM], RXFP1 antagonist -1 and GALK inh 11%.
Screening CCOc1ccc2nc(NC(=O)c3ccoc3C)sc2c1 returned RXFP1 ag 0%, miR-21 reporter -9%, PKM2 activator -35%, RXFP1 antagonist -16, Luc counter 2.8µM* and GALK inh 13%.
`O=C(COC(=O)/C=C/c1ccc(Cl)cc1)NC(=O)NCc1ccccc1` gave RXFP1 ag 1% and RXFP1 antagonist -61*.
`O=C(COC(=O)/C=C/c1ccccc1)NCc1ccc(Cl)cc1` gave RXFP1 ag 0%, miR-21 reporter -3%, PKM2 activator -4%, RXFP1 antagonist -8, Luc counter -1% and GALK inh -3%.
Screening CCOC(=O)C1CCCN(C(=O)c2cccc(NC(=O)C(CC)CC)c2)C1 (stereo not drawn) returned RXFP1 ag -1%, miR-21 reporter -2%, PKM2 activator -11%, RXFP1 antagonist 4, Luc counter 3% and GALK inh 2%.
`COc1ccc(-c2ccc(NS(=O)(=O)c3cc([N+](=O)[O-])c(C)c([N+](=O)[O-])c3)cc2)nn1` gave RXFP1 ag 0%, miR-21 reporter -4%, RXFP1 antagonist -2 and GALK inh -2%.

Next part; the last 2 above are carried over.
Screening CCOC(=O)C1CCCN(C(=O)c2cccc(NC(=O)C(CC)CC)c2)C1 (stereo not drawn) returned RXFP1 ag -1%, miR-21 reporter -2%, PKM2 activator -11%, RXFP1 antagonist 4, Luc counter 3% and GALK inh 2%.
`COc1ccc(-c2ccc(NS(=O)(=O)c3cc([N+](=O)[O-])c(C)c([N+](=O)[O-])c3)cc2)nn1` gave RXFP1 ag 0%, miR-21 reporter -4%, RXFP1 antagonist -2 and GALK inh -2%.
Cc1cc(C(=O)COC(=O)c2ccc(O)cc2O)c(C)n1-c1ccccc1 was read as RXFP1 ag -3% and RXFP1 antagonist -87*.
COc1ccc(-n2c(C)cc(C(=O)COC(=O)c3ccc(O)cc3O)c2C)cc1 was read as RXFP1 ag -1% and RXFP1 antagonist -33.
`O=C(NNc1c(Cl)cccc1Cl)c1sccc1Cl` gave RXFP1 ag 2%, miR-21 reporter -7%, PKM2 activator 16µM*, RXFP1 antagonist 11 and GALK inh -9%.
Screening Cc1cccc(N(C)C(=S)Oc2ccc3c(c2)CCC3)c1 returned RXFP1 antagonist -63*.
For Cc1cccc(N(C)C(=S)Oc2ccc3ccccc3c2)c1 the results were RXFP1 ag 2%, miR-21 reporter -27%, PKM2 activator 6%, RXFP1 antagonist -71*, Luc counter 0% and GALK inh -3%.
Screening O=C(Nc1ccccc1)Nc1ccc2ocnc2c1 returned RXFP1 ag 5%, miR-21 reporter -49%, PKM2 activator -27%, RXFP1 antagonist 7, Luc counter 11µM* and GALK inh 10%.
For O=C(Nc1ccccc1)Nc1ccc2ncoc2c1 the results were RXFP1 ag 2%, miR-21 reporter -44%, PKM2 activator -6%, RXFP1 antagonist -6, Luc counter -19% and GALK inh 0%.
Cc1cc(C)n2cc(CSc3nnnn3-c3ccccc3C)nc2n1 was read as RXFP1 ag 3%, miR-21 reporter -2%, PKM2 activator 14µM*, RXFP1 antagonist -8, Luc counter -3% and GALK inh 7%.
Screening CCSc1nc(O)cc(=O)[nH]1 returned RXFP1 ag -1%, miR-21 reporter 1%, PKM2 activator 4%, RXFP1 antagonist 9 and GALK inh 4%.
Screening CCSc1nc(=S)cc(C)[nH]1 returned RXFP1 ag 2%, miR-21 reporter 3%, PKM2 activator 14%, RXFP1 antagonist -75* and GALK inh -2%.
Screening C=CCN1c2ccccc2[C@]23C[C@@H](C(=O)OC)N(C(=O)COCc4ccccc4)C2=NC(C(=O)OC)=C(C(=O)OC)[C@H]13 returned PKM2 activator 2%[11.5 µM] and Luc counter -4%[7.66 µM].

Fetched one by one from the entries so far, 2 records:
For O=C(Nc1ccccc1)Nc1ccc2ncoc2c1 the results were RXFP1 ag 2%, miR-21 reporter -44%, PKM2 activator -6%, RXFP1 antagonist -6, Luc counter -19% and GALK inh 0%.
Screening CCSc1nc(=S)cc(C)[nH]1 returned RXFP1 ag 2%, miR-21 reporter 3%, PKM2 activator 14%, RXFP1 antagonist -75* and GALK inh -2%.

Compound activity: PubChem BioAssay, National Center for Advancing Translational Sciences (NCATS)
